From PubChem BioAssay AID1918990
The list shows a part of the results, in another mix than the full data. Activity calls are given as the source filed them.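 The calls were made as follows: active = replicate mean overnight rise in green fluorescent reporter signal, 3 or more SD over negative controls; inactive = the rest.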

Test: activators of Burkholderia fixLJ two-component system, primary screen, B. multivorans, GFP reporter (AID 1918990)
Conditions: B. multivorans fixK-promoter GFP reporter, 18 h; active compounds read high

Q: For `CN(CCCl)CCCl`, which z-score is on record?
A: inactive: -5.2
